From US9403874B2, “Peptides and use thereof” (IL YANG PHARM. CO.,LTD., priority 2012, dated 2016)

What was measured:
Type in all cases: cell-based
Conditions in all cases: 100 ng/me of peptide; EBV-infected B cells stimulated with anti-CD150; ELISA of culture supernatant
IL-1A = assay: Reduction of IL-1A secretion in activated B cells (ELISA)
Procedure: (§1) In order to determine the activity of the novel peptides synthesized in Example 1 for reducing the secretion of inflammatory cytokines, the activated pathogenic B cells were treated with each of the 18 types of synthesized novel peptides and the reduction in secretion of inflammatory cytokines from the B cells was monitored.
(§2) Specifically, in order to determine whether the novel peptides could weaken the pathogenic B cells which are involved in the development of disease symptoms, the in vitro B cells model which is similar to the joint infiltrative B cells of rheumatoid arthritis was used. The activated pathogenic B cell was generated by stimulating Ebstein Barr virus (EBV)-infected B cells with anti-CD150 antibodies, and the cells were treated with […] of each of the 18 types of novel peptide.
(§3) In order to confirm the effect of 18 types of novel peptides in reducing inflammatory cytokines, the secretion amount of various cytokines (IL-1A, IL-1B, IL-2, IL-4, IL-5, IL-6, IL-8, IL-10, IL-12A, IL-13, IL-17A, GM-CSF, IL-34) secreted from the activated B cells was measured. The supernatants of B cell culture were analyzed enzyme-linked immunosorbent assay (ELISA), and the difference in absorbance (450 nm-570 nm) of the color developing reagent was measured as test results. […]

IL-13 = assay: Reduction of IL-13 secretion in activated B cells (ELISA)
Procedure: as §1, §2, §3

IL-5 = assay: Reduction of IL-5 secretion in activated B cells (ELISA)
Procedure: as §1, §2, §3

IL-6 = assay: Reduction of IL-6 secretion in activated B cells (ELISA)
Procedure: as §1, §2, §3

IL-17A = assay: Reduction of IL-17A secretion in activated B cells (ELISA)
Procedure: as §1, §2, §3

IL-34 = assay: Reduction of IL-34 secretion in activated B cells (ELISA)
Procedure: as §1, §2, §3

IL-8 = assay: Reduction of IL-8 secretion in activated B cells (ELISA)
Procedure: as §1, §2, §3

IL-4 = assay: Reduction of IL-4 secretion in activated B cells (ELISA)
Procedure: as §1, §2, §3

IL-1B = assay: Reduction of IL-1B secretion in activated B cells (ELISA)
Procedure: as §1, §2, §3

IL-10 = assay: Reduction of IL-10 secretion in activated B cells (ELISA)
Procedure: as §1, §2, §3

GM-CSF = assay: Reduction of GM-CSF secretion in activated B cells (ELISA)
Procedure: as §1, §2, §3

IL-2 = assay: Reduction of IL-2 secretion in activated B cells (ELISA)
Procedure: as §1, §2, §3

IL-12A = assay: Reduction of IL-12A secretion in activated B cells (ELISA)
Procedure: as §1, §2, §3

Substance	Inhibition rate of each cytokine compared to CD150-stimulated EBV-t B cells (%) IL-1A (IL-1A)	Inhibition rate of each cytokine compared to CD150-stimulated EBV-t B cells (%) IL-13 (IL-13)	Inhibition rate of each cytokine compared to CD150-stimulated EBV-t B cells (%) IL-5 (IL-5)	Inhibition rate of each cytokine compared to CD150-stimulated EBV-t B cells (%) IL-6 (IL-6)	Inhibition rate of each cytokine compared to CD150-stimulated EBV-t B cells (%) IL-17A (IL-17A)	Inhibition rate of each cytokine compared to CD150-stimulated EBV-t B cells (%) IL-34 (IL-34)	Inhibition rate of each cytokine compared to CD150-stimulated EBV-t B cells (%) IL-8 (IL-8)	Inhibition rate of each cytokine compared to CD150-stimulated EBV-t B cells (%) IL-4 (IL-4)	Inhibition rate of each cytokine compared to CD150-stimulated EBV-t B cells (%) IL-1B (IL-1B)	Inhibition rate of each cytokine compared to CD150-stimulated EBV-t B cells (%) IL-10 (IL-10)	Inhibition rate of each cytokine compared to CD150-stimulated EBV-t B cells (%) GM-CSF (GM-CSF)	Inhibition rate of each cytokine compared to CD150-stimulated EBV-t B cells (%) IL-2 (IL-2)	Inhibition rate of each cytokine compared to CD150-stimulated EBV-t B cells (%) IL-12A (IL-12A)
SIS-1#13 (RD; SIS-1#13 peptide)	1.0%	0.5%	2.5%	1.2%	0.7%	0.1%	0.7%	1.6%	1.2%	1.0%	0.5%	1.6%	1.2%
SIS-1#12 (DG; SIS-1#12 peptide)	0.3%	0.9%	0.9%	3.1%	0.3%	0.3%	0.1%	1.3%	1.3%	0.3%	1.0%	1.2%	2.9%
